Experimental data: patent US12414569B2 (priority 2019, dated 2025)

Conditions: Citrus sinensis

SMILES | Migration Rate [cm/h] | detection in the 18-20 cm or the 28-30 cm sections of the stem by GC/MS
O=CC=Cc1ccccc1 [Cinnamaldehyde] | 1.50 | –
Cc1nnc(C)s1 [2,5-Dimethyl-1,3,4-thiadiazole] | 1.75 | –
C=CCSSCC=C [Diallyl disulfide] | 3.0 | not in the 18-20 cm or the 28-30 cm sections
C=CCSSSCC=C [Diallyl Trisulfide] | 3.25 | not in the 18-20 cm or the 28-30 cm sections
